US4051241A
Where “and” joins values, the source holds several entries; their conditions need not be identical. Identical values can stand only once. Like-named read-outs stand apart in the source and are kept apart here.

What was measured:
HPA axis [1] = settings: 25.0 mg per day, oral, 6 A.M., 7 days
[2] = Metabolic effects: loss of urinary nitrogen and calcium; settings: Table IVA, daily oral, 20 mg printed in table (40 mg in text), subjects 1, 2; listed as 11β,17α,21-trihydroxypregna-1,4-diene-3,20-dione
HPA axis [3] = settings: 25.0 mg per day, oral, 6 A.M., 7 days; remark: listed apart in the source
[4] = listed as 11β,17α21-trihydroxypregna-1,4-diene-3,20-dione

## C[C@]12C=CC(=O)C=C1CC[C@@H]1[C@@H]2[C@@H](O)C[C@@]2(C)[C@H]1CC[C@]2(O)C(=O)CO [Prednisolone]
HPA axis [1]; [4]
  Normal/Total IHT Response: 2/3
HPA axis [1]; listed as 11β,17α,21-trihydroxy-1,4-pregnadine-3,20-dione
  Normal/Total IHT Response: only two
[2]
  Mean Urinary Calcium, Treatment Period Days 10-15: 273 milligrams per 24 hours and 274 milligrams per 24 hours
  Mean Urinary Nitrogen, Treatment Period Days 10-15: 9.6 grams per 24 hours and 9.4 grams per 24 hours
HPA axis [3]; [4]
  Normal/Total A.M. Plasma Cortisol: 0/3
HPA axis [3]; listed as 11β,17α,21-trihydroxypregna-1,4-diene-3,20-dione
  Normal/Total A.M. Plasma Cortisol: none
